Tested on: SERT Ala56
Assay type: cell-based, human
Experimental: FIGS. 3A-B. SERT is refractory to regulation through PKG and p38 MAP kinase signaling pathways. […] Homozygous Ala56 cells (10^6/tube) were preincubated for various times at 37° C. with 10 μM 8BrcGMP prior to [^3H]5-HT transport assays. […]. Findings were replicated with identical results in an additional line for each genotype.
Functional Analysis of Gly56Ala Activity and Regulation. EBV-transformed lymphocyte cell lines from AGRE or Tufts/Vanderbilt autism families carrying either the Gly56 or 56Ala alleles were obtained from the NIMH Human Genetics Initiative Repository (www.nimhgenetics.org/) at Rutgers University. Lymphocytes were cultured in suspension in RPMI 1640 medium (supplemented with 15% fetal bovine serum, 2 mM L-glutamine, 100 units/ml penicillin, and 100 μg/ml streptomycin) at 37° C. in a humidified incubator at 5% CO2 prior to assay. Lymphocytes were pelleted at 1500 rpm, 5 min and washed with KRH assay buffer. […] After a 5-min incubation with [^3H]5-HT (20 nM) at 37° C., uptake assays were terminated by immersion on ice, and uptake in pelleted, 1% SDS-extracted cells quantitated by scintillation spectrometry. Specific 5-HT uptake was determined by subtracting the amount of [^3H]5-HT accumulated in the presence of 10 μM paroxetine (SmithKline Beecham). […]

COc1ccc(C[C@H]2NC[C@H](O)[C@H]2OC(C)=O)cc1 [anisomycin]
sensitivity of SERT Ala56 [3H]5-HT transport to the p38 MAPK activator anisomycin: lacks sensitivity
